From patent US9850293B2, “Targeting trastuzumab-resistant HER2+ breast cancer with a HER3-targeting nanoparticle” (priority 2014, dated 2017)

Assays:
HER2+ MDA-MB-435 cells = assay: Cell uptake (fluorescence confocal microscopy); format: cell-based, human; conditions: up to two hours after cell binding
Experimental: (§1) (A) compares biodistribution and intracellular trafficking of HerPBK10 and Tz.
The uptake in HER2+ MDA-MB-435 cells were also evaluated.

JIMT-1 tumors = assay: Trastuzumab-resistant tumor growth in vivo; parameters: species or system mouse; conditions: 0.004 mg Dox/kg/injection, twice-weekly IV
Experimental: (§2) Tumor volumes were measured by calipers. Day 0 corresponds to first day of treatment. N=10 tumors per treatment.
as §2
(§3) The efficacy of HerDox was also examined on a cell line with pre-existing resistance.
(§4) The contribution of HER3 to targeted toxicity was evaluated by assessing whether pre-adsorbing HerDox with a peptide comprising the ligand-binding domain of HER3 blocked cytotoxicity.

[1] = tested on: SKBR3 trastuzumab-resistant cells; assay: Tumor cell killing in culture; format: cell-based, human; conditions: 48-72 h after treatment
Experimental: (§5) FIG. 21 depicts graph that show the results of the administration of HerDox on various cells. […] N=3. *=p<0.05 compared to parental. […] N=3.
(§6) N=3. *, p<0.05 compared to parental. […] N=3. […] Parental and resistant cell lines were treated with HerDox−/+HER3 blocking peptide (ErbB3 human; Prospec), and tested for cell survival 48 hours later. […] Treatments were compared to mock (saline)-treatment. […] N=3. *, p<0.05 compared to parental. […] N=3.
Each therapeutic was administered at concentration ranges previously established for eliciting therapeutic efficacy.
Each therapeutic was administered at concentration ranges previously established or known in the art for eliciting therapeutic efficacy.

SKBR3 parental cells = assay: Tumor cell killing in culture; format: cell-based, human; conditions: 48-72 h after treatment
Experimental: as §5, §6
(§7) Parental cell lines were pre-treated with 0.5 mg/mL Tz for 24 hours before testing these cells for surface HER3 levels. […] Parental cell lines were pre-treated with 0.5 mg/mL Tz for 24 hours before testing these cells for HerPBK10 binding. […] SKBR3 Parental cells were treated with Tz at indicated concentrations (see upper X-axes) 4 and 24 hours before HerDox treatment and assayed for survival at 48-72 h after treatment. N=3. […] SK-474 Parental cells were treated with Tz at indicated concentrations (see upper X-axes) 4 and 24 hours before HerDox treatment and assayed for survival at 48-72 h after treatment. N=3. […] MDA-MB-435 non-resistant cells were treated with Tz at indicated concentrations (see upper X-axes) 4 and 24 hours before HerDox treatment and assayed for survival at 48-72 h after treatment. N=3. […]

HER2+ tumor = assay: Biodistribution of labeled HerPBK10, Tz and BSA; format: in vivo, mouse; conditions: tail vein, four hours after injection
Experimental: as §1
Fluorescently-labeled HerPBK10 was prepared to assess its bio-distribution and cell uptake in comparison to labeled Tz. Equivalent doses of each reagent were injected into the tail veins of HER2+ tumor bearing mice. Tissues were harvested at four hours after injection for imaging. Both reagents were compared to a labeled non-targeted protein, BSA.

[2] = tested on: Tz+Lp-resistant BT474 cells; assay: Tumor cell killing in culture; format: cell-based, human
[3] = tested on: BT474 Tz-resistant tumors; assay: Tumor growth in vivo, HerGa; parameters: species or system mouse; conditions: intravenous
Experimental: N=3. *, p<0.05 compared to parental. […] N=3. […] N=3. […] Tumor volumes were measured by calipers. Day 0 corresponds to first day of treatment. N=10 tumors per treatment. […] Tumor volumes were measured by calipers. Day 0 corresponds to first day of treatment. N=10 tumors per treatment.

JIMT-1 cell line = assay: Tumor cell killing in culture, pre-existing resistance; format: cell-based, human; conditions: broad concentration range
Experimental: N=3. *, p<0.05 compared to parental. […] N=3. […] Treatments were compared to mock (saline)-treatment. […] N=3. *, p<0.05 compared to parental. […] N=3.
as §3, §4

BT474 parental cells = assay: Tumor cell killing in culture; format: cell-based, human; conditions: parental BT474, 48-72 h after treatment
Experimental: as §5, §6, §7
(§8) N=3. *, p<0.05 compared to parental. […] Tumor volumes were measured by calipers. […] Tumor volumes were measured by calipers. […]

[4] = tested on: BT474 trastuzumab-resistant cells; assay: Tumor cell killing in culture; conditions: 48-72 h after treatment
Experimental: as §5, §6, §7, §8

Trastuzumab: monoclonal antibody that interferes with the HER2/neu receptor [reference compound]
cell surface binding and uptake pattern (HER2+ MDA-MB-435 cells): sparse binding on the cell surface that remained in sparsely punctate areas on the cells up to two hours after cell binding | effect on JIMT-1 tumor growth (JIMT-1 tumors): only slight | response of SKBR3 resistant cells [1]: little response | response of parental SKBR3 cells (SKBR3 parental cells): little response | delivery to liver, lung, and kidney (HER2+ tumor): higher for Tz than HerPBK10 | delivery to the heart, spleen, and muscle (HER2+ tumor): nearly absent delivery | tumor accumulation (HER2+ tumor): equivalent levels of tumor accumulation | effect on Tz+Lp-resistant BT474 cells [2]: no efficacy | size of tumors that became resistant to Tz treatment in vivo [3]: started to grow in size despite therapeutic doses of Tz | response of JIMT-1 cells (JIMT-1 cell line): remained unresponsive | reduction of cell survival (BT474 parental cells): 50% | effect on BT474 resistant cells [4]: ineffective
